Assay results taken from PubChem BioAssay AID463254 (National Center for Advancing Translational Sciences (NCATS), 2010).
The list shows a part of the results, in another mix than the full data. Some structures show a salt or complex split into parts, the way the source records it. Activity calls are given as the source filed them. Calls come from the whole dose curve; as a rule, active = well fitted inhibition curve with a large enough effect; inconclusive = small, poorly fitted or top-dose-only effect, or effect the other way; inactive = flat fitted curve, though single readings scatter.

Sequences of proteins named here, by UniProt entry; tags and fusion partners are left off.
UniProt O75604, whole entry: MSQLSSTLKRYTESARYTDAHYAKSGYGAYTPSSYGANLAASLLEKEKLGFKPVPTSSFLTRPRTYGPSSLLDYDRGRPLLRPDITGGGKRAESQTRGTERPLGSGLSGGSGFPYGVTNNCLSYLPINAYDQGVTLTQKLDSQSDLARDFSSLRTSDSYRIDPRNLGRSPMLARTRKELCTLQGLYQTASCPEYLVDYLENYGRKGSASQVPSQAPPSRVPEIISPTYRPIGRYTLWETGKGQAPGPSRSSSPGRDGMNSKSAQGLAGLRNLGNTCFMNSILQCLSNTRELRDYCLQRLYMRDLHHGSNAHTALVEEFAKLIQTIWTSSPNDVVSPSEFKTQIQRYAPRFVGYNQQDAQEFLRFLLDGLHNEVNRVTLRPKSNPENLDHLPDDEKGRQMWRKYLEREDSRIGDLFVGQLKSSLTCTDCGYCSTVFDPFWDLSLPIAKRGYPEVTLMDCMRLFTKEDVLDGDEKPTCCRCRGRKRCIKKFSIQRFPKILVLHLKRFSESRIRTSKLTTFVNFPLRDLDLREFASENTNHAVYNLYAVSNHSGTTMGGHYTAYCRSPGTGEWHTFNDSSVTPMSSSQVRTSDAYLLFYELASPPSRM

Molecular target: Ubiquitin carboxyl-terminal hydrolase 2 (Homo sapiens) (UniProt O75604)
Assay: qHTS Assay for Inhibitors of Ubiquitin-specific Protease USP2a Using CHOP2 as the Reporter
Details: USP2 core, Ub-CHOP2 coupled fluorogenic reporter, 485/531; at 38.3 µM (top of the series)
From the text: NIH Molecular Libraries Screening Centers Network [MLSCN] NIH Chemical Genomics Center [NCGC] MLSCN Grant: XO1-MH079852-01 PI Name: Nicholson, Ben. Progenra Inc, Malvern, PA NCGC Assay Overview: Homeostasis of cellular proteins is maintained through a combination of synthesis and degradation. The pathway that accounts for the majority of protein degradation is the ubiquitin-proteasomal pathway. Ubiquitin (Ub) is highly conserved in all cells and the generation of a multi-Ub chain typically targets proteins for degradation by the proteasome. However, ubiquitination is highly reversible and dynamic. Deubiquitination, the reverse process, is catalyzed through the action of enzymes referred to as isopeptidases or deubiquitinating enzymes (DUBs). This group of enzymes is collectively responsible for maintaining adequate pools of free ubiquitin and regulating the ubiquitination status of cellular proteins. The class of DUBs referred to as the ubiquitin-specific proteases (USP) family functions endoproteolytically to cleave Ub chains from a wide range of protein substrates. USP2a deubiquitinates fatty acid synthase (FASN) which has recently been identified as an emerging oncology target. To identify inhibitors of USP2a a cell-free assay was employed. […] The reporter enzyme chosen is an enterokinase called CHOP2, which is activated when the Ub is cleaved by USP2. The free and now activated reporter can subsequently act on its reporter substrate. Thus, this coupled assay gives a fluorescent read-out at excitation/emission wavelengths of 485/531. The assay was developed by Progenra, Inc. and has been licensed for sale by LifeSensors, Inc. as Ub-CHOP2-Reporter-Kit (#PR1101).
NCGC Assay Protocol Summary: The assay buffer, prepared fresh at the day of the assay, contains 20mM Tris-HCl pH 8.0, 2mM CaCl2, 2mM beta-Mercaptoethanol, 0.05% CHAPS. 3ul of 20nM (10nM final) USP2 core, which is stored on ice, is dispensed into a medium-binding black solid Kalypsys 1,536 well plate using the Kalypsys dispenser. The assay plate is then pinned with 23nL compound with the Kalypsys pintool in columns 5-48. The controls are pinned as follows: column 1 two-fold dilutions of 2M NEM in duplicate; column 2 2M NEM (final concentration 38.2mM); column 3&4 DMSO. The assay plate is incubated at RT for 30min. Subsequently, 1.5uL of 100nM (25nM final) Ub-CHOP2 and 1.5uL of 100nM (25nM final) Reporter Substrate (both stored on ice and protected from light) were dispensed into the plate using the Kalypsys dispenser. Plates were read after 60min RT incubation on a ViewLux (Perkin Elmer) plate reader using the following wavelengths Ex 485nm /Em 531nm. Data were normalized to the to AC100 inhibition (NEM). Concentration-response curves were fitted to the normalized data and the concentration-response curves were then classified based on curve quality (r2), response magnitude and degree of measured activity. The time zero reading was used to flag fluorescence artifacts. Keywords: ubiquitination, deubiquitination, proteases, profluorescent, MLSMR, MLPCN, NIH Roadmap, qHTS, NCGC

Compound	activity change, negative = inhibition
CCOC(=O)N1CCC(Nc2ccc(F)cc2)CC1	inactive: -0.263%
COc1ccc(NC2CCN(CCc3ccccc3)CC2)c(OC)c1	inactive: 0.914%
O=C(NCC1(N2CCCCC2)CCCCC1)c1ccc(F)cc1	inactive: 0.76%
CCCCOc1ccc(C(=O)NCC2(N3CCOCC3)CCCCC2)cc1	inactive: 0.268%
CCOc1ccc(C)cc1CN(CCCl)CCCl	inactive: 1.63%
Cc1ccc(OCC(C)C)c(CN(CCCl)CCCl)c1	inactive: 10.3%
COc1cc(C(=O)NCC2(N(C)C)CCCCC2)ccc1OC(F)F	inactive: 2.82%
CCOC(=O)N1CCC(Nc2cccc(C)c2)CC1	inactive: 1.27%
CSc1ccccc1C(=O)NCC1(N2CCCCC2)CCCCC1	inactive: -1%
O=C(NCC1(N2CCCCC2)CCCCC1)c1cccs1	inactive: 1.81%
O=C(NCC1(N2CCCCC2)CCCCC1)c1ccc(=O)[nH]c1	inactive: -1.01%
CC(C)(C)OC(=O)N1CCC(N(C(=O)c2ccccc2)c2ccc(F)cc2)CC1	inactive: 1.96%
COc1ccc(C(=O)NCC2(N3CCCCC3)CCCCC2)c(OC)c1OC	inactive: 1.99%
COc1ccc(C(=O)NCC2(N3CCCCC3)CCCCC2)cc1	inactive: 9.84%
CCOC(=O)N1CCC(Nc2ccc(OC)cc2)CC1	inactive: 0.666%
COc1ccc(Cl)cc1C(=O)NCC1(N2CCOCC2)CCCCC1	inactive: -3.61%
O=C(OC1CN2CCC1CC2)C1c2ccccc2Oc2ccccc21 (centres undefined)	inactive: -0.545%
O=C(NCC1(N2CCCCC2)CCCCC1)c1ccc(Cl)s1	inactive: 2.61%
N#CC1(Nc2ccccc2)CCN(Cc2ccccc2)CC1	inactive: 1.94%
O=C(NCC1(N2CCOCC2)CCCCC1)c1cc2ccccc2o1	inactive: 2.42%
Cc1cc(C)cc(N(C(=O)c2ccccc2)C2CCN(C(=O)OC(C)(C)C)CC2)c1	inactive: -0.146%
O=C(NCC1(N2CCCCC2)CCCCC1)c1ccc(Cl)nc1	inactive: -0.738%
O=C(NCC1(N2CCOCC2)CCCCC1)c1cc(F)c(F)cc1Cl	inactive: -4.21%
COc1cc(OC)c(C(=O)NCC2(N(C)C)CCCCC2)cc1OC	inactive: -0.268%
CN(C)c1cccc(C(=O)NCC2(N3CCCCC3)CCCCC2)c1	inactive: 3.02%

Compound	activity change, negative = inhibition
O=[N+]([O-])c1cc([N+](=O)[O-])c(OC2CCCCC2O)c([N+](=O)[O-])c1 (centres undefined)	inactive: 0.294%
COc1ccc(CN(CCCl)CCCl)cc1Cl	inactive: -1.32%
CC(C)c1ccc(NC2CCN(C(=O)OC(C)(C)C)CC2)cc1	inactive: 0.294%
CCCOc1ccc(C(=O)NCC2(N(C)C)CCCCC2)cc1OC	inactive: -1.36%
COc1ccc2c(c1O)-c1c(O)c(OC)cc3c1[C@H](C2)[N+](C)(C)CC3.O=[N+]([O-])c1cc([N+](=O)[O-])c([O-])c([N+](=O)[O-])c1[O-]	inactive: 8%
O=C(NCC1(N2CCCCC2)CCCCC1)c1cncc(Br)c1	inactive: 2.81%
O=C(OC1CN2CCC1CC2)c1ccc([N+](=O)[O-])cc1 (centres undefined)	inactive: 1.62%
O=C(NCC1(N2CCCCC2)CCCCC1)c1cccc([N+](=O)[O-])c1	inactive: -0.346%
CSc1ccc(C(=O)NCC2(N3CCOCC3)CCCCC2)cc1	inactive: -1.36%
N#CC1(Nc2ccccc2)CCN(CCc2ccccc2)CC1	inactive: 0.668%
CCN1CCC(Nc2ccc(Cl)cc2)CC1	inactive: 2.82%
O=C(NCC1(N2CCCCC2)CCCCC1)c1ccc(OC(F)F)cc1	inactive: -0.219%
CC(C)c1ccc(C(=O)NCC2(N3CCOCC3)CCCCC2)cc1	inactive: 1.58%
COc1ccc(NC2CCN(C(=O)OC(C)(C)C)CC2)cc1	inactive: 12.6%
CN1CCN(CCOC(=O)C(O)(c2ccccc2)c2ccccc2)CC1	inactive: 3.6%
O=C(NCC1(N2CCOCC2)CCCCC1)c1cc(=O)[nH]c2ccccc12	inactive: -5.46%
COc1cc(C(=O)NCC2(N3CCCCC3)CCCCC2)ccc1OC(F)F	inactive: -0.124%
O=C(NCC1(N2CCCCC2)CCCCC1)c1cccc(C(F)(F)F)c1	inactive: -0.763%
O=[N+]([O-])c1cc([N+](=O)[O-])c(NCC2CCS(=O)(=O)C2)c([N+](=O)[O-])c1 (centres undefined)	inactive: -0.755%
CCOC(=O)C(CC)C1=NC(C)(C)Cc2ccccc21.O=[N+]([O-])c1cc([N+](=O)[O-])c(O)c([N+](=O)[O-])c1 (centres undefined)	inactive: 3.49%
CC(C)(C)OC(=O)N1CCC(N(C(=O)c2ccccc2)c2ccc(Cl)cc2)CC1	inactive: -3.06%
N#Cc1ccc(C(=O)NCC2(N3CCCCC3)CCCCC2)cc1	inactive: 0.985%
CCCN1CCC(Nc2cc(OC)cc(OC)c2)CC1	inactive: 0.482%
c1ccc(CN2CCC(Nc3ccccc3)CC2)cc1	inactive: 0.763%
CN(C)C1(CNC(=O)c2cccc(C#N)c2)CCCCC1	inactive: -5.67%

Compound	activity change, negative = inhibition
COc1ccc(C(=O)NCC2(N3CCOCC3)CCCCC2)cc1OC	inactive: 7.62%
O=C(NCC1(N2CCOCC2)CCCCC1)c1cc(Br)ccc1Cl	inactive: -8.53%
COc1cc(C(=O)NCC2(N3CCOCC3)CCCCC2)cc(OC)c1C	inactive: -4.85%
O=C(O)c1cccc(Nc2c([N+](=O)[O-])cc([N+](=O)[O-])cc2[N+](=O)[O-])c1	inactive: 8.88%
O=C(OC1CN2CCC1CC2)C1c2ccccc2C=Cc2ccccc21 (centres undefined)	inactive: -1.16%
CCc1cc(C(=O)NCC2(N3CCCCC3)CCCCC2)sc1C	inactive: 2.82%
N/C(=N\O)c1c(N)no[n+]1[O-]	inactive: 0.458%
CCOC(=O)N1CCC(Nc2ccc(C)cc2)CC1	inactive: 0.0596%
CCCOc1ccc(C(=O)NCC2(N(C)C)CCCCC2)cc1	inactive: 3.01%
O=C(O)C1(Nc2ccccc2)CCN(Cc2ccccc2)CC1	inactive: -0.92%
CC(C)(C)OC(=O)N1CCC(Nc2ccccc2)CC1	inactive: 2.51%
CN1CCC(Nc2ccc(F)c(Cl)c2)CC1	inactive: -1.27%
CCOc1ncccc1C(=O)NCC1(N2CCOCC2)CCCCC1	inactive: 0.0383%
CCCOc1ccc(C)cc1CN(CCCl)CCCl	inactive: 0.142%
CN1CCC(Nc2ccc(Cl)cc2)CC1	inactive: -0.44%
CCC(CO)(C(=O)OC1CN2CCC1CC2)c1ccccc1 (centres undefined)	inactive: 0.443%
COc1cccc(C(=O)N(c2cc(C)cc(C)c2)C2CCN(C(=O)OC(C)(C)C)CC2)c1	inactive: -6.24%
COc1cc(OC)cc(C(=O)NCC2(N3CCOCC3)CCCCC2)c1	inactive: 2.53%
Fc1ccccc1NC1CCN(Cc2ccccc2)CC1	inactive: -1.45%
Cc1ccc(C(=O)NCC2(N3CCCCC3)CCCCC2)o1	inactive: 1.7%
COc1cc(OC)cc(C(=O)NCC2(N3CCCCC3)CCCCC2)c1	inactive: 1.44%
CN(C)c1ccc(C(=O)NCC2(N3CCCCC3)CCCCC2)cc1	inactive: 0.624%
O=C(NCC1(N2CCCCC2)CCCCC1)c1ccco1	inactive: 4.04%
CCN1CCC(Nc2cccc(F)c2)CC1	inactive: -2%
